Cyclic peptide permeability, from CycPeptMPDB

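Lipid, pH, incubation time, direction and concentration are not recorded in the data file. Other peptides of the study may be missing here. Peptides that the database sets to -10, its floor, are left out.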

PAMPA is the parallel artificial membrane permeability assay, which has no cells and reads passive diffusion.
Values are log10 P with P in cm/s, so -5 is more permeable than -7.

{"smiles": "CCCC[C@@H]1NC(=O)[C@@H](CC(C)C)NC(=O)CN(CC2CCOCC2)C(=O)[C@H](C)NC(=O)CN(Cc2ccc3c(c2)OCO3)C(=O)[C@H]2CCCN2C1=O", "PAMPA (log10 cm/s)": "-6.05"}
{"smiles": "CCCCCN1CC(=O)N(C)[C@@H](CC(C)C)C(=O)N[C@@H](CCCC)C(=O)N2CCC[C@@H]2C(=O)N(CCCOC(C)C)CC(=O)N[C@@H](Cc2ccccc2)C1=O", "PAMPA (log10 cm/s)": "-5.47"}
{"smiles": "CCCC[C@@H]1NC(=O)[C@@H](CC(C)C)NC(=O)CN(CC2CCCCC2)C(=O)[C@H](C)NC(=O)CN(Cc2ccc3c(c2)OCO3)C(=O)[C@H]2CCCN2C1=O", "PAMPA (log10 cm/s)": "-4.90"}
{"smiles": "CCCC[C@@H]1NC(=O)[C@@H](CC(C)C)N(C)C(=O)CN(CC2CCCCC2)C(=O)[C@H](C)NC(=O)CN(CCCOC(C)C)C(=O)[C@H]2CCCN2C1=O", "PAMPA (log10 cm/s)": "-4.86"}
{"smiles": "CCCC[C@@H]1NC(=O)[C@@H](CC(C)C)N(C)C(=O)CN(CC2CCOCC2)C(=O)[C@H](C)NC(=O)CN(Cc2ccc3c(c2)OCO3)C(=O)[C@H]2CCCN2C1=O", "PAMPA (log10 cm/s)": "-5.47"}
{"smiles": "CCCC[C@@H]1NC(=O)[C@@H](CC(C)C)N(C)C(=O)CN(CC2CCCCC2)C(=O)[C@H](C)NC(=O)CN(CCCOC(C)C)C(=O)[C@@H]2CCCN2C1=O", "PAMPA (log10 cm/s)": "-4.83"}
{"smiles": "CCCC[C@@H]1NC(=O)[C@@H](CC(C)C)NC(=O)CN(CC2CCCCC2)C(=O)[C@H](C)NC(=O)CN(Cc2ccc3c(c2)OCO3)C(=O)[C@@H]2CCCN2C1=O", "PAMPA (log10 cm/s)": "-5.01"}
{"smiles": "CCCC[C@@H]1NC(=O)[C@H](CC(C)C)NC(=O)CN(CC2CCCCC2)C(=O)[C@@H](Cc2ccccc2)NC(=O)CN(CCCOC(C)C)C(=O)[C@H]2CCCN2C1=O", "PAMPA (log10 cm/s)": "-5.22"}
{"smiles": "CCCC[C@@H]1NC(=O)[C@H](CC(C)C)N(C)C(=O)CN(CC2CCCCC2)C(=O)[C@@H](C)NC(=O)CN(CCCOC(C)C)C(=O)[C@H]2CCCN2C1=O", "PAMPA (log10 cm/s)": "-5.47"}
{"smiles": "CCCC[C@@H]1NC(=O)[C@H](CC(C)C)N(C)C(=O)CN(CC2CCCCC2)C(=O)[C@H](Cc2ccccc2)NC(=O)CN(CCCOC(C)C)C(=O)[C@H]2CCCN2C1=O", "PAMPA (log10 cm/s)": "-6.11"}
{"smiles": "CCCCCN1CC(=O)N[C@H](CC(C)C)C(=O)N[C@@H](CCCC)C(=O)N2CCC[C@@H]2C(=O)N(CCCOC(C)C)CC(=O)N[C@@H](Cc2ccccc2)C1=O", "PAMPA (log10 cm/s)": "-4.81"}
{"smiles": "CCCC[C@@H]1NC(=O)[C@H](CC(C)C)NC(=O)CN(CC2CCOCC2)C(=O)[C@@H](C)NC(=O)CN(CC)C(=O)[C@@H]2CCCN2C1=O", "PAMPA (log10 cm/s)": "-8.88"}

2 of these entries, quoted again:

| structure (SMILES) | PAMPA (log10 cm/s) |
|---|---|
| CCCC[C@@H]1NC(=O)[C@@H](CC(C)C)NC(=O)CN(CC2CCOCC2)C(=O)[C@H](C)NC(=O)CN(Cc2ccc3c(c2)OCO3)C(=O)[C@H]2CCCN2C1=O | -6.05 |
| CCCC[C@@H]1NC(=O)[C@H](CC(C)C)N(C)C(=O)CN(CC2CCCCC2)C(=O)[C@H](Cc2ccccc2)NC(=O)CN(CCCOC(C)C)C(=O)[C@H]2CCCN2C1=O | -6.11 |

Collected by the curators of CycPeptMPDB (Li et al. 2023) from Furukawa et al. 2016, doi:10.1021/acs.jmedchem.6b01246.